Earlier results, collected in PMC8131289, “Direct Comparison of the Prediction of the Unbound Brain-to-Plasma Partitioning Utilizing Machine Learning Approach and Mechanistic Neuropharmacokinetic Model” (The AAPS Journal, 2021).

Sequences of proteins named here, by UniProt entry; tags and fusion partners are left off. A change or cut given only in a name is not applied to a line headed by its entry.
UniProt Q9UNQ0: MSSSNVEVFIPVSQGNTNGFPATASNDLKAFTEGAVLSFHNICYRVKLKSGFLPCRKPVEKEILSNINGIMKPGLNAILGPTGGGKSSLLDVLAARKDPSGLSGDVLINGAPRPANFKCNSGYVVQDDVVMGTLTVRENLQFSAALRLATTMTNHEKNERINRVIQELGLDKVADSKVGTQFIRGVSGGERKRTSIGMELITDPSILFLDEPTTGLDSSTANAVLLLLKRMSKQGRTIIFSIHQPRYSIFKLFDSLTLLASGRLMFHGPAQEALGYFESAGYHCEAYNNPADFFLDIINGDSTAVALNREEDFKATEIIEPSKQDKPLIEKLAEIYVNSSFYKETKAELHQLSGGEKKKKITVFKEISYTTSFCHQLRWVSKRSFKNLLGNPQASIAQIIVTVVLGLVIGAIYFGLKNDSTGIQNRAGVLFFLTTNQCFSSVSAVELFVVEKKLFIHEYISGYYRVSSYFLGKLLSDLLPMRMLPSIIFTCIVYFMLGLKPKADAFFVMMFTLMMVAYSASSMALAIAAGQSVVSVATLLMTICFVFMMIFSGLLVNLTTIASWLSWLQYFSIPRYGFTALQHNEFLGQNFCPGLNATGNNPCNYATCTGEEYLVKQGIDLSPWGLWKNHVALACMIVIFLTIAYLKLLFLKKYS

Molecular target: BCRP (Homo sapiens, UniProt Q9UNQ0)
Conditions: MDCK-BCRP cells, external dataset; ref (17)

Cc1cc2c(s1)Nc1ccccc1N=C2N1CCN(C)CC1 [Olanzapine]
Efflux ratio BCRP: 1.2
